Compound activity (PubChem)
A selection: hits, their analogues and other compounds. The true share with any hit is near 16%.
miR-21 reporter – miR-21 reporter, rising signal | HeLa miR-21 FLuc reporter, luciferase, 48 h | Potency, µM (doses to about 38.3 µM), inactives show at the top dose reporter change, positive = more light | 340,000 tested, under 10 active | AID 2288; active = well fitted rising curve with a large enough effect; inconclusive = small, poorly fitted or top-dose-only effect; inactive = no such curve, though single readings can be large or run the other way;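 note: % of control where 0% means no effect; miR-21 action dims this reporter so a rising signal means less miR-21 action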
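Using DMEM plus 10% FBS, HeLa miR-21-FLuc cells are incubated with test compounds (final up to about 40uM) for 48 hours; firefly luciferase signal is then imaged following reagent-mediated lysis.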
uPA surface inh – inhibitors of cell surface uPA generation. AID 540303. Potency, µM (highest dose often 38.3 µM), inactives show at the highest dose activity change, negative = inhibition, actives largely listed as inhibitors. cell surface uPA generation assay, qHTS. 330,000 compounds, 0.31% hits; active = well fitted inhibition curve with a large enough effect; inconclusive = small, poorly fitted or top-dose-only effect; inactive = no such curve, though single readings can be large or run the other way; tested in mouse RAW 264.7 cells; also: potency is read from the fitted curve at half-maximal effect; % is scaled to controls: 0 for no effect and ±100 for the full control effect; nearly all actives have a fitted effect of over 55% in size
DT40 TDP1 CPT – DT40-hTDP1 cell growth loss with CPT; Potency, µM (highest dose often 46.2 µM), inactives show top-dose activity change, negative = growth inhibition, usual class: inhibitors; chicken DT40 Tdp1-/-;hTDP1 cells + 20 nM CPT, ATP luminescence, 48 h; 420,000 compounds, 12% hits; also: potency is read from the fitted curve at half-maximal effect; % is scaled to controls: 0 for no effect and ±100 for the full control effect; nearly all actives have a fitted effect of over 55% in size
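Cell growth measured by CellTiter-Glo luminescence after a minimum 48 h, 37 C compound exposure with 20 nM CPT in Tdp1-knockout DT40 cells stably expressing hTDP1, seeded 400/well; qHTS titration format.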
DT40 TDP1 no CPT – qHTS for Inhibitors of human tyrosyl-DNA phosphodiesterase 1 (TDP1): qHTS in cells in absence of CPT; DT40 Tdp1-/- hTDP1 cells, no CPT, ATP luminescence, 48 h; Potency, µM (titrated, usually from 46.2 µM), inactives show top-dose activity change, negative = growth inhibition, hits mostly inhibitors; 420,000 compounds, 15% hits; AID 686978, 2013; also: potency is read from the fitted curve at half-maximal effect; % is scaled to controls: 0 for no effect and ±100 for the full control effect; nearly all actives have a fitted effect of over 55% in size
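Cells were dispensed at 400 per well, compounds added by pin tool, plates incubated ≥48 hr at 37 °C, then CellTiter-Glo added for 30 min at room temperature before luminescence reading. Line: DT40 Tdp1-/- complemented with hTDP1; camptothecin omitted.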
TDP1 inh – inhibitors of human tyrosyl-DNA phosphodiesterase TDP1 | recombinant TDP1, AlphaScreen DNA substrate cleavage | Potency, µM (titrated, usually from 130 µM), inactives show at the highest dose activity change, negative = inhibition, usual class: inhibitors | Q9NUW8 | 350,000 compounds, 0.28% hits; also: potency is read from the fitted curve at half-maximal effect; % is scaled to controls: 0 for no effect and ±100 for the full control effect; nearly all actives have a fitted effect of over 40% in size
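Recombinant human Tdp1 (E. coli-expressed, 1 nM final) preincubated with compounds 15 min at room temperature, then 5'-biotin/3'-phosphotyrosine-FITC DNA substrate (15 nM final) added for 5 min. AlphaScreen beads (10 ug/ml final) added 10 min; cleavage lowers signal.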
* = called active by the depositor; ? = inconclusive; nt = no result given; [ ] = dose if it differs, or a comment. Unless noted, calls follow the shape of the dose curve; as a rule, active = well fitted curve in the direction sought with a large enough effect; inconclusive = small, poorly fitted or top-dose-only effect, or another doubt; inactive = no such curve, though single readings can be large; an effect the other way counts as inactive or inconclusive.

SMILES	miR-21 reporter	uPA surface inh	DT40 TDP1 CPT	DT40 TDP1 no CPT	TDP1 inh
Cc1ccc(C(=O)Nc2nc(=O)n(C(=O)CC(C)C)s2)cc1	-14%	-3%	-29%	-18%	5%
OC(c1ccccc1)c1nc2ccccc2s1 (centres undefined)	-8%	7%	23µM*	?	4%
OC(c1ccccc1)c1nc(-c2ccccc2)cs1 (centres undefined)	nt	nt	2%	-20%	nt
COc1ccc(C(=O)c2oc3ccc(OC)cc3c2N)cc1	-99%	6%	?	16µM*	3%
COc1ccc(Cn2c(=O)c3[nH]cnc3n(-c3ccccc3C)c2=O)cc1	11%	-11%	3.7µM*	5.2µM*	3%
Nc1ccccc1-n1c(=O)n(Cc2ccccc2F)c(=O)c2[nH]cnc21	-7%	2%	?	21µM*	nt
CC1(C(=O)NS(=O)(=O)C2CC2)CCCN(C(=O)c2ccccc2)C1 (centres undefined)	nt	nt	5.2µM*	2.1µM*	nt
CCCS(=O)(=O)NC(=O)C1(C)CCCN(C(=O)c2ccco2)C1 (centres undefined)	nt	nt	0%	6%	nt
CC1(C(=O)NS(=O)(=O)C2CC2)CCCN(C(=O)c2ccc3c(c2)OCO3)C1 (centres undefined)	nt	nt	7.3µM*	5.8µM*	nt
CC1(C(=O)NS(=O)(=O)C2CC2)CCCN(C(=O)c2ccco2)C1 (centres undefined)	nt	nt	?	12µM*	nt
CCCNC(=O)C1(C)CCCN(C(=O)c2ccc3ccccc3c2)C1 (centres undefined)	nt	nt	-19%	?	nt
COCCNC(=O)C1(C)CCCN(C(=O)c2ccc3c(c2)OCO3)C1 (centres undefined)	nt	nt	-3%	0%	nt
CC1(C(=O)NS(=O)(=O)C2CC2)CCCN(C(=O)c2ccc3ccccc3c2)C1 (centres undefined)	nt	nt	0.52µM*	0.26µM*	nt
COc1ccccc1C(=O)NC(=O)COC(=O)c1oc2ccccc2c1C	nt	7%	2%	17%	-3%
Cn1ccc(C(=O)N/N=C/c2c[nH]c3ccccc23)n1	-40%	-1%	-1%	?	0%
COCCNC(=O)C(c1ccc(C)cc1)N(CCOC)C(=O)CCC(=O)Nc1ccccn1 (centres undefined)	-2%	7%	6%	3%	10%
CC1(C(=O)NS(=O)(=O)C2CC2)CCCN(C(=O)c2c(F)cccc2F)C1 (centres undefined)	nt	nt	5.2µM*	4.6µM*	nt
COC(=O)c1ccc(C(=O)N2CCCC(C)(C(=O)NS(=O)(=O)C3CC3)C2)cc1 (centres undefined)	nt	nt	?	1.5µM*	nt
Cc1c(C(=O)N2CCCC(C)(C(=O)NS(=O)(=O)C3CC3)C2)oc2ccccc12 (centres undefined)	nt	nt	?	4.1µM*	nt
Cc1c(C(=O)N2CCC(C)(C(=O)NS(=O)(=O)C3CC3)C2)oc2ccccc12 (centres undefined)	nt	nt	?	0%	nt

Entries from the list above that have a halogen (2):
SMILES	miR-21 reporter	uPA surface inh	DT40 TDP1 CPT	DT40 TDP1 no CPT	TDP1 inh
Nc1ccccc1-n1c(=O)n(Cc2ccccc2F)c(=O)c2[nH]cnc21	-7%	2%	?	21µM*	nt
CC1(C(=O)NS(=O)(=O)C2CC2)CCCN(C(=O)c2c(F)cccc2F)C1 (centres undefined)	nt	nt	5.2µM*	4.6µM*	nt

Part of the list above in a different format.
molecule,miR-21 reporter,uPA surface inh,DT40 TDP1 CPT,DT40 TDP1 no CPT,TDP1 inh
COc1ccc(Cn2c(=O)c3[nH]cnc3n(-c3ccccc3C)c2=O)cc1,11%,-11%,3.7µM*,5.2µM*,3%
COC(=O)c1ccc(C(=O)N2CCCC(C)(C(=O)NS(=O)(=O)C3CC3)C2)cc1 (centres undefined),nt,nt,?,1.5µM*,nt
CCCNC(=O)C1(C)CCCN(C(=O)c2ccc3ccccc3c2)C1 (centres undefined),nt,nt,-19%,?,nt

The list goes on:
SMILES	miR-21 reporter	uPA surface inh	DT40 TDP1 CPT	DT40 TDP1 no CPT	TDP1 inh
CCCS(=O)(=O)NC(=O)C1(C)CCCN(C(=O)c2c(F)cccc2F)C1 (centres undefined)	nt	nt	-3%	-4%	nt
CC1(C(=O)NS(=O)(=O)C2CC2)CCCN(C(=O)c2cccs2)C1 (centres undefined)	nt	nt	5.2µM*	6.5µM*	nt
O=C1CC(c2ccco2)Cc2nc(Nc3nc(-c4ccccc4)c4ccccc4n3)ncc21 (centres undefined)	-3%	6%	?	?	6%
CCC(=O)NC1CC(=O)N(c2ccc3c(c2)OCCO3)C1 (centres undefined)	1%	nt	1%	-15%	3%
Cn1nc(C(C)(C)C)cc1C(=O)N1CCC(C)(C(=O)NS(=O)(=O)C2CC2)C1 (centres undefined)	nt	nt	-19%	-16%	nt
Cn1nc(C(C)(C)C)cc1C(=O)N1CCCC(C)(C(=O)NS(=O)(=O)C2CC2)C1 (centres undefined)	nt	nt	6.5µM*	6.5µM*	nt
CC1(C(=O)NS(=O)(=O)C2CC2)CCCN(C(=O)/C=C/c2ccccc2)C1 (centres undefined)	nt	nt	?	15µM*	nt
C=CCNc1cc(=O)n(Cc2ccccc2)c(=O)[nH]1	nt	-4%	?	18µM*	nt
CCCCn1cnc2c(SCCc3ccccc3)nc(N)nc21	nt	1%	-21%	?	nt
CC(C)(C)NC(=O)C(c1ccco1)N(C(=O)Cn1nnc(-c2ccc(F)cc2)n1)c1ccccc1F (centres undefined)	13%	nt	29µM*	16µM*	3%
CC(C(=O)NC1CCCC1)N(C(=O)Cn1nnc(-c2ccc(F)cc2)n1)c1ccccc1F (centres undefined)	20%	-5%	23µM*	23µM*	nt
CCC(C(=O)NC(C)(C)C)N(C(=O)Cn1nnc(-c2ccccc2F)n1)c1cccc2c1CCCC2 (centres undefined)	1%	nt	?	18µM*	3%
C/C(=N\NC(=O)c1ccncc1)c1cccnc1	-2%	4%	3%	5%	2%[56.1 µM]
O=C(N/N=C(\CC(=O)c1cccs1)C(F)(F)F)c1cccnc1	-5%	-4%	?	23µM*	8%
C/C(=N\NC(=O)c1cccnc1)c1ccc(OC2OCCOC2Oc2ccc(/C(C)=N/NC(=O)c3cccnc3)cc2)cc1 (centres undefined)	-6%	1%	?	21µM*	7%
COc1ccc(/C(C)=N/NC(=O)CNC(=O)c2cccnc2)cc1	-1%	3%	14%	0%	nt
C/C(=N\NC(=O)c1cccs1)c1cccnc1	-40%	-4%	15µM*	26µM*	2%
O=C(C1CCCO1)N1CCN(Cc2c(O)ccc3ccccc23)CC1 (centres undefined)	6%	-2%	-21%	-19%	9%
c1ccc(N2CCN(c3ncnc4c3oc3ccccc34)CC2)cc1	-9%	0%	?	?	8%
CCc1nc(Nc2ccc(N3CCN(C(C)=O)CC3)cc2)c2oc3ccccc3c2n1	?	-4%	21µM*	13µM*	15%
O=C(CSc1ncnc2c1oc1ccccc12)N1CCN(c2ccccc2)CC1	nt	0%	?	29µM*	nt
CC(=O)N1CCN(c2ccc(Nc3ncnc4c3oc3ccccc34)cc2)CC1	?	-12%	15µM*	10µM*	-2%
c1coc(CSc2ncnc3c2oc2ccccc23)c1	-39%	1%	11%	8.2µM*	nt
CC(NC(=O)c1cccc2c1Oc1ccccc1S2)C(=O)O (centres undefined)	nt	nt	-11%	-15%	nt
